Laboratory results as given in patent US20060204502A1 (priority 2004, published 2006).

Amino acid sequences for entries named in this document (tags omitted).
UniProt P08183, whole entry: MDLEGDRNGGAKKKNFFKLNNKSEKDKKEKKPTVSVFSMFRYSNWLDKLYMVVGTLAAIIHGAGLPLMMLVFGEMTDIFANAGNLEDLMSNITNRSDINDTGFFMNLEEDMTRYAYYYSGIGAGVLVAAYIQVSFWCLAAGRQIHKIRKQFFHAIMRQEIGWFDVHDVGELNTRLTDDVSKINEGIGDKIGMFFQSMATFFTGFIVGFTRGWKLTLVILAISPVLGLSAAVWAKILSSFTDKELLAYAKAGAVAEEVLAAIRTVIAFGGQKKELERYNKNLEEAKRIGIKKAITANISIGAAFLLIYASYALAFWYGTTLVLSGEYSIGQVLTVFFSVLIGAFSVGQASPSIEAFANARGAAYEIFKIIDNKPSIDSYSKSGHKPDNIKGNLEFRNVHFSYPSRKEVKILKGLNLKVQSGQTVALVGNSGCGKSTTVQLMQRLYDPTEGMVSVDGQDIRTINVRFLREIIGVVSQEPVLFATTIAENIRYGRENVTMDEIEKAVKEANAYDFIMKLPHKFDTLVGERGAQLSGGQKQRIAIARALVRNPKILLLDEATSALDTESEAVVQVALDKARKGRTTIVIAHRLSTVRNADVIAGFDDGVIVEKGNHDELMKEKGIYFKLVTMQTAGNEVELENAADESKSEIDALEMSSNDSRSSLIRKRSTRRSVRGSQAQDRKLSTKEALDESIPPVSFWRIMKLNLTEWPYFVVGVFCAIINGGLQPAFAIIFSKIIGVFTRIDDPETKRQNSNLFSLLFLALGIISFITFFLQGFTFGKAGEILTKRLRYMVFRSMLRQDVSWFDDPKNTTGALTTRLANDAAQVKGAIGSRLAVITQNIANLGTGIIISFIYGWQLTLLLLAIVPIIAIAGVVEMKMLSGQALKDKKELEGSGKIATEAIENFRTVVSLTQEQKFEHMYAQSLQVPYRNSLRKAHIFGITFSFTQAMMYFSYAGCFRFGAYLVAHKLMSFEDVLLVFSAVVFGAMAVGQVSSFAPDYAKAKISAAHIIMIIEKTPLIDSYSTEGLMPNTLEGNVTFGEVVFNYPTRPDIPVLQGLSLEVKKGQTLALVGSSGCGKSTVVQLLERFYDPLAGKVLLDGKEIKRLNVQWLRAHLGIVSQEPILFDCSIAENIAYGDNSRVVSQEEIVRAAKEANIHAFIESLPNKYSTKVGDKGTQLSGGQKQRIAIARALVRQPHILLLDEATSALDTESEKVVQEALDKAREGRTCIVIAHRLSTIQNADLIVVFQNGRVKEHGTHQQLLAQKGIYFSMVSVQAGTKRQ

Molecular target: P-gp (Homo sapiens, UniProt P08183)
Conditions: HeL023 cells; 70 μM

Nc1nc(NCCc2ccc(O)cc2)nc2nc(-c3ccco3)nn12
% of Rh123 Negative Cells (cells expressing P-gp activity): 93.0 ± 1.1%
